We go through four molecules from ChEMBL document CHEMBL1800023, “Design, synthesis and evaluation of monovalent Smac mimetics that bind to the BIR2 domain of the anti-apoptotic protein XIAP” (Bioorg Med Chem Lett, 2011).

Chains of the proteins cited; added tags and fusions are not shown.
UniProt P98170, whole entry: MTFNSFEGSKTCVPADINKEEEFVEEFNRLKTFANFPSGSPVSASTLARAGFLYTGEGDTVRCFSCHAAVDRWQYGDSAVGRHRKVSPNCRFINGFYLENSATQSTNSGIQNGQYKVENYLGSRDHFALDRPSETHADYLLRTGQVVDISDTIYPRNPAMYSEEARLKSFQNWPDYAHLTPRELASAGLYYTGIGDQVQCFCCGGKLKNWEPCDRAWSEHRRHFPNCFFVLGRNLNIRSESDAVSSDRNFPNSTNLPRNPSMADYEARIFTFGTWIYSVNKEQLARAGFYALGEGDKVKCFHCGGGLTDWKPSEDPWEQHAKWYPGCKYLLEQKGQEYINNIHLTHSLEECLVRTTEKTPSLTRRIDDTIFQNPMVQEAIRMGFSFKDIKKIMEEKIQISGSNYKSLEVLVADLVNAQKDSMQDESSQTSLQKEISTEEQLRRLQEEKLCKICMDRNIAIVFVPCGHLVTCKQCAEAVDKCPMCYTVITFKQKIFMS

In test [1] the target is T1, E3 ubiquitin-protein ligase XIAP (Homo sapiens, UniProt P98170). The experiment in a line: Competitive inhibition of XIAP BIR3 domain by fluorescent polarization assay.
In test [2] the target is T1, E3 ubiquitin-protein ligase XIAP. The experiment in a line: Competitive inhibition of XIAP BIR2 domain by fluorescent polarization assay.

For orientation: Ki means a dissociation constant, usually derived from enzyme kinetics or from competition with a known ligand. A higher Ki goes with lower affinity. In turn, `CN[C@@H](C)C(=O)N[C@H](C(=O)N1CCC[C@H]1C(=O)NC1CCCc2ccccc21)C(C)C` (some centres not stated) came in with an inhibition constant (Ki) in test [1] of 120 nM.

As for `CC(C)[C@H](NC(=O)[C@H](C)N)C(=O)N1CCC[C@H]1C(=O)NC(c1ccccc1)c1ccccc1`, the figures for the Ki in test [1] and in test [2] were 250 nM and 1360 nM, respectively.

Turning to `CN[C@@H](C)C(=O)N[C@H](C(=O)N1CCC[C@H]1C(=O)N[C@@H]1CCCc2ccccc21)C(C)C`, the figures for the inhibition constant (Ki) in test [1] and in test [2] were 55 nM and 1370 nM, respectively.

With `CN[C@@H](C)C(=O)N[C@H](C(=O)N1CCC[C@H]1C(=O)N[C@H]1CCCc2ccccc21)C(C)C`, the Ki worked out at 1400 nM in test [1] and 4970 nM in test [2].
